# Measured values taken from BindingDB's records for doi:10.1016/S0968-0896(02)00561-8 (Purdue University, 2003).
# The chains behind the UniProt entries cited, without tags or fusion partners.
# UniProt P61169, whole entry: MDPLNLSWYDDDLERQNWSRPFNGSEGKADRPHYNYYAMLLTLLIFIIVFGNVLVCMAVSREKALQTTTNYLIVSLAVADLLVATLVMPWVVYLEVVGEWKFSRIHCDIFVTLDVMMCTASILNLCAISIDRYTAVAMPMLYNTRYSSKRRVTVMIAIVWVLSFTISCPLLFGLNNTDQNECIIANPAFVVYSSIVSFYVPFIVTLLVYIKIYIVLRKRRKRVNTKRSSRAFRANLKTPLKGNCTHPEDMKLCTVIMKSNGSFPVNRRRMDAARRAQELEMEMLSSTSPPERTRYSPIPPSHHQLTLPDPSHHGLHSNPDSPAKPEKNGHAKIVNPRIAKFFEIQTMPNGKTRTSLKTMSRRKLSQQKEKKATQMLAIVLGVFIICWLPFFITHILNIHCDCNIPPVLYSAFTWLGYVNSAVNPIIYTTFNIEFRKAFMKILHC
# Target: D(2) dopamine receptor (Rattus norvegicus, UniProt P61169)
smiles,measurement,value
"Oc1ccc2c(c1O)Cc1cccc3c1[C@H]2CNC3 [Dinapsoline, (R)(+)]",Ki,53 nM and 25 nM

# “And” between values parts separate entries of the source, which are not always exact repeats. Equal values may be shown once.
